# Assay results reported in PubChem BioAssay AID602363 (Broad Institute, 2012).
# Among all 350,000 compounds or so, about 450 (0.13%) were called active. Shown is part of a subset that was picked to be rich in actives. Unmarked numbers belong to inactive results.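 The calls were made as follows: active = replicate mean at a twofold rise or more (about +100% in these data); inactive = the rest.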
# Test: UUG initiation codon usage in yeast – whole organism, S. cerevisiae, single point, plate reader, primary screen (AID 602363);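 also: firefly luciferase made from a UUG start codon reports start codon fidelity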
# Details: S. cerevisiae UUG-firefly luciferase reporter, luminescence/redox ratio; at 18.7 µM; hits give high values
row,Structure (SMILES),activity score
1,COc1cccc(S(=O)(=O)N[C@@H]2CC[C@@H](CCNC(=O)Cc3ccncc3)O[C@H]2CO)c1,0.154%
2,C[C@@H]1CN([C@@H](C)CO)C(=O)c2cc(-c3cccnc3)cnc2O[C@@H]1CN(C)C(=O)C1CC1,-5.34%
3,O=C(C[C@@H]1C[C@@H]2c3cc(NC(=O)Nc4ccc(C(F)(F)F)cc4)ccc3O[C@@H]2[C@@H](CO)O1)NCCc1ccccc1,-18.2%
4,C[C@@H]1CCCCO[C@H](CN(C)S(=O)(=O)c2cccs2)[C@@H](C)CN([C@@H](C)CO)C(=O)c2cc(NC(=O)NC3CCCCC3)ccc2O1,-8.53%
5,CO[C@@H]1CN(C)C(=O)c2cc(NC(=O)C3CC3)ccc2OC[C@@H](C)N(C(=O)c2ccncc2)C[C@H]1C,0.045%
6,CN(C)C(=O)c1ccc(-c2ccc([C@@H]3[C@@H](CO)N4CCCCN(Cc5cncnc5)C[C@@H]34)cc2)cc1,-3.82%
7,O=C(C1CCC1)N1C[C@@H]2[C@H](c3ccccc31)[C@H](CO)N2C(=O)c1ccccc1,53.9%
8,O=C(c1ccccc1F)N1C[C@@H]2[C@H](c3ccccc31)[C@H](CO)N2C(=O)C1CCCC1,6.27%
9,O=C(c1cccnc1)N1C[C@H]2[C@@H](c3ccccc31)[C@H](CO)N2C(=O)C1CCCCC1,-1.65%
10,O=C(c1cccnc1)N1C[C@@H]2[C@H](c3ccccc31)[C@@H](CO)N2C(=O)Nc1ccc(F)cc1,52.2%
11,O=C(c1cccnc1)N1C[C@H]2[C@@H](c3ccccc31)[C@H](CO)N2C(=O)C1CC1,101% (active)
12,O=C(C1CCC1)N1C[C@H]2[C@@H](c3ccccc31)[C@@H](CO)N2C(=O)c1ccccc1F,115% (active)
13,COc1ccccc1-c1cn(CC[C@H]2CC[C@H](NC(=O)C3CCOCC3)[C@@H](CO)O2)nn1,-2.48%
14,C[C@@H]1CN([C@H](C)CO)S(=O)(=O)c2ccc(-c3ccccc3)cc2O[C@@H]1CN(C)C(=O)C1CC1,1.27%
15,Cn1cnc(CCNC(=O)C[C@H]2CC[C@H]3[C@@H](COC[C@H](O)CN3C(=O)C3CCCC3)O2)c1,2.13%
16,C[C@@H]1CCCCO[C@@H](CN(C)C(=O)Nc2ccc(F)cc2)[C@H](C)CN([C@@H](C)CO)C(=O)c2cc(NS(=O)(=O)c3ccccc3)ccc2O1,-2.99%
17,CCCC(=O)Nc1ccc2c(c1)C(=O)N(C)[C@H]1CC[C@@H](CC(=O)NCc3ccccc3)O[C@@H]1CO2,6.07%
18,COc1cccc(S(=O)(=O)N2C[C@@H](O)COC[C@@H]3O[C@H](CC(=O)N4CCN(C)CC4)CC[C@H]32)c1,25.3%
19,O=C(C1CCC1)N1C[C@H]2[C@@H](c3ccccc31)[C@H](CO)N2C(=O)Nc1cccc(F)c1,4.33%
20,CN1c2ccc(C#Cc3cccnc3)cc2[C@H]2[C@H](CCN2S(=O)(=O)c2ccccc2)[C@@H]1CO,-20.3%
21,C[C@H]1CN([C@@H](C)CO)C(=O)c2cc(NC(=O)Cn3cnnn3)ccc2O[C@@H]1CN(C)CC1CCCCC1,-6.95%

row,Structure (SMILES),activity score
1,C[C@H]1CN([C@@H](C)CO)C(=O)c2cc(Br)cnc2O[C@@H]1CN(C)C(=O)c1ccccc1F,1.14%
2,C[C@@H]1CCCCO[C@H](CN(C)Cc2ccc3c(c2)OCO3)[C@H](C)CN([C@@H](C)CO)C(=O)c2cc(NS(=O)(=O)c3cn(C)cn3)ccc2O1,0.464%
3,C[C@H]1CCCCO[C@H](CN(C)CC2CCCCC2)[C@@H](C)CN([C@@H](C)CO)C(=O)c2cc(NS(=O)(=O)c3ccc(Cl)cc3)ccc2O1,19.2%
4,Cc1noc(C)c1S(=O)(=O)Nc1ccc2c(c1)C(=O)N([C@@H](C)CO)C[C@@H](C)[C@@H](CN(C)S(=O)(=O)c1ccccc1)O2,-1.76%
5,C[C@H]1CN([C@@H](C)CO)C(=O)c2cccc(NC(=O)C3CC3)c2O[C@@H]1CN(C)S(=O)(=O)c1ccc(F)cc1,-5.43%
6,CN(C)CC(=O)Nc1ccc2c(c1)[C@@H]1C[C@H](CC(=O)NCc3ccc(Cl)cc3)O[C@@H](CO)[C@@H]1O2,26.4%
7,COCC(=O)Nc1ccc2c(c1)C(=O)N(C)[C@@H]1CC[C@H](CC(=O)NCC3CCCCC3)O[C@H]1CO2,-1.78%
8,CNC(=O)C[C@@H]1CC[C@@H]2[C@@H](COc3ccc(NC(=O)Cc4cccs4)cc3C(=O)N2C)O1,3.32%
9,CC(C)C#Cc1ccc2c(c1)O[C@@H](CN(C)C(=O)C1CC1)[C@H](C)CN([C@H](C)CO)S2(=O)=O,1.46%
10,O=S(=O)(Cc1ccccc1)N1CCCCN2[C@H](CO)[C@@H](c3ccc(-c4cncnc4)cc3)[C@H]2C1,-10.2%
11,COc1ccc(NC(=O)N(C)C[C@@H]2OCCCC[C@H](C)Oc3ccc(NS(=O)(=O)c4cccs4)cc3C(=O)N([C@@H](C)CO)C[C@@H]2C)cc1,-14.6%
12,C[C@H]1CN([C@@H](C)CO)C(=O)c2cccc(NS(C)(=O)=O)c2O[C@@H]1CN(C)C(=O)Nc1ccc(F)cc1,-0.709%
13,COCC(=O)N(C)C[C@H]1Oc2ncc(-c3cccc(OC)c3)cc2C(=O)N([C@H](C)CO)C[C@H]1C,11.3%
14,CO[C@H]1CN(C)C(=O)c2ccc(NS(=O)(=O)c3cn(C)cn3)cc2OC[C@@H](C)N(C)C[C@@H]1C,-8.25%
15,C[C@@H]1CN([C@H](C)CO)C(=O)Cc2cc(NC(=O)CCCN(C)C)ccc2O[C@H]1CN(C)S(=O)(=O)c1cccs1,4.48%
16,CCC(=O)N1[C@@H](CO)[C@@H]2c3ccccc3N(C(=O)c3cnccn3)C[C@@H]21,-8.18%
17,O=C(N[C@@H]1CC[C@@H](CCNS(=O)(=O)Cc2ccccc2)O[C@@H]1CO)c1ccccc1F,-4.32%
18,CC(C)NC(=O)N[C@@H]1CC[C@@H](CCNS(=O)(=O)Cc2ccccc2)O[C@@H]1CO,-4.26%
19,O=C(N[C@H]1CC[C@@H](CCNS(=O)(=O)Cc2ccccc2)O[C@H]1CO)c1ccccc1F,170% (active)
20,C[C@@H]1CCCCO[C@H](CN(C)C(=O)Cc2ccccc2)[C@@H](C)CN([C@@H](C)CO)C(=O)c2cc(NC(=O)c3ccccc3)ccc2O1,0.371%
21,COCCCNC(=O)[C@@]1(C)c2ccccc2C(=O)N(Cc2ccc(OC(F)(F)F)cc2)[C@H]1c1ccc(CO)cc1,2.89%

row,Structure (SMILES),activity score
1,CC(C)N1C(=O)[C@@]2(Cc3ccccc31)c1ccccc1C(=O)N(C1CCCCC1)[C@H]2c1ccc(CO)cc1,69%
2,COc1ccc(CCN2C(=O)[C@@]3(Cc4ccccc42)c2ccccc2C(=O)N(Cc2ccccc2C(F)(F)F)[C@H]3c2ccc(CO)cc2)cc1,153% (active)
3,COc1ccccc1NC(=O)N(C)C[C@@H]1Oc2ncc(Br)cc2C(=O)N([C@@H](C)CO)C[C@@H]1C,19.9%
4,CCOC(=O)C(=Cc1ccccc1OC)C(=O)OCC,448% (active)
5,CCOC(=O)C(=CNc1cccc(C)n1)C(=O)OCC,-12%
6,CCOC(=O)C(=Cc1ccccc1)C(=O)c1ccccc1,-13%
7,COc1ccc(-c2cnc3c(c2)C(=O)N([C@@H](C)CO)C[C@@H](C)[C@H](CN(C)C)O3)cc1,-4.93%
8,N#Cc1cccc(-c2ccc3c(c2)[C@H]2[C@H](CCN2S(=O)(=O)c2ccc(F)cc2)[C@@H](CO)N3)c1,-15.3%
9,C[C@H]1CN([C@@H](C)CO)C(=O)Cc2cc(NC(=O)Nc3ccccc3)ccc2O[C@H]1CN(C)S(=O)(=O)c1cn(C)cn1,2.53%
10,C[C@H](CO)N1C[C@H](C)[C@@H](CN(C)Cc2cccnc2)Oc2cc(C#CC3CC3)ccc2S1(=O)=O,8.44%
11,COc1cccc(C(=O)Nc2ccc3c(c2)OC[C@H](C)N(C(C)=O)C[C@@H](C)[C@@H](OC)CN(C)C3=O)c1,43.4%
12,C/C=C/c1ccc2c(c1)O[C@@H](CN(C)C(=O)Cc1ccccc1)[C@H](C)CN([C@@H](C)CO)S2(=O)=O,58.8%
13,CC(C)NC(=O)N(C)C[C@H]1Oc2ccc(NC(=O)CCC(F)(F)F)cc2CC(=O)N([C@@H](C)CO)C[C@@H]1C,-4.49%
14,CCCC(=O)Nc1ccc2c(c1)C(=O)N(C)[C@H]1CC[C@@H](CC(=O)NCC(F)(F)F)O[C@@H]1CO2,-2.34%
15,CO[C@@H]1CN(C)C(=O)c2cc(NC(=O)C3CCCC3)ccc2OC[C@H](C)N(C)C[C@@H]1C,3.06%
16,Cc1noc(C)c1NC(=O)Nc1ccc2c(c1)CC(=O)N([C@@H](C)CO)C[C@@H](C)[C@@H](CN(C)C(=O)NC(C)C)O2,-0.961%
17,C[C@H](O)C#Cc1cnc2c(c1)C(=O)N([C@H](C)CO)C[C@H](C)[C@H](CN(C)C(=O)c1ccc(F)cc1)O2,9.52%
18,CC(C)NC(=O)N(C)C[C@@H]1Oc2c(cccc2N(C)C)C(=O)N([C@@H](C)CO)C[C@H]1C,-11.2%
19,C[C@H]1CN([C@@H](C)CO)C(=O)c2cc(NS(=O)(=O)c3cccs3)ccc2O[C@@H]1CN(C)C(=O)Nc1ccccc1,-9.65%
20,C[C@@H]1CN([C@@H](C)CO)S(=O)(=O)c2ccc(C#CCN(C)C)cc2O[C@@H]1CN(C)CC1CC1,33.3%
21,C[C@@H]1CCCCO[C@@H](CN(C)Cc2ccc(C(=O)O)cc2)[C@H](C)CN([C@@H](C)CO)C(=O)c2cc(NC(=O)C3CCCCC3)ccc2O1,3.06%
